Source: PubChem BioAssay (ICCB-Longwood Screening Facility, Harvard Medical School)
GIV-Gai inh: blocks GIV peptide binding to rat Galpha-i3; Galpha-i3/FITC-GIV peptide fluorescence polarization, 90 min; stronger effect = lower value; scaled: aluminum fluoride 0%, vehicle 100%; P08753; hit rate 0.42% among 210,000; AID 1224905; percent of control (FP), % (test concentration not listed);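 active = replicate mean at 85% of control or lower, very high polarization wells dropped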;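 also: wells of about 15 µL received 100 nL stock; the first replicate is given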
HCMV NEC inh: inhibitors of HCMV UL50-UL53 interaction, biochemical, HTRF; 190,000 compounds, 0.15% hits; normalized percent inhibition; HCMV UL50-UL53 nuclear egress complex (human cytomegalovirus); inhibition, % (no concentration beside the values); in the data active = inhibition above about 27%, passing the limit was not always enough
* marks the source's active call; other numbers are inactive results. The list is not random: actives were taken first. Their share in the collection is about 0.46%.

Results for COCCOC(=O)c1cnn2c(C(F)(F)F)cc(-c3ccccc3)nc12 ?
GIV-Gai inh: 108; HCMV NEC inh: -29

How did COc1ccccc1NC(=O)CC1C(=O)NC2CCCCC2N1C(=O)C(F)(F)F (stereo not given) do in these assays?
GIV-Gai inh: 105; HCMV NEC inh: -34

Results for COc1ccc(N2CC(C(=O)Nc3ccc(-c4nc(C)no4)cc3)CC2=O)cc1 (stereo not given) ?
GIV-Gai inh: 103; HCMV NEC inh: -15

Results for COC(=O)CN(C#N)c1nc(NCc2ccccc2)nc(OC)n1 ?
GIV-Gai inh: 110; HCMV NEC inh: 54*

What do the screens show for `COC(=O)CN(C#N)c1nc(C)cc(C)n1`?
GIV-Gai inh: 98; HCMV NEC inh: 1

How did O=C(O)c1cccc(N2C(=O)c3ccc4c5c(ccc(c35)C2=O)C(=O)N(c2cccc(C(=O)O)c2)C4=O)c1 do in these assays?
GIV-Gai inh: 105; HCMV NEC inh: -43

Results for O=C(O)c1cc(NC(=O)c2cccc(N3C(=O)c4cccc5c([N+](=O)[O-])ccc(c45)C3=O)c2)cc(C(=O)O)c1 ?
GIV-Gai inh: 85*; HCMV NEC inh: -20

What do the screens show for `CCOc1ccc2nc(/N=C/c3nc(-c4ccc([N+](=O)[O-])cc4)oc3O)sc2c1`?
GIV-Gai inh: 117

How did COc1cccc2cc(C(=O)C3=C(O)C(=O)N(CCCn4ccnc4)C3c3ccc(F)cc3)oc12 (stereo not given) do in these assays?
GIV-Gai inh: 105; HCMV NEC inh: -61

What do the screens show for `COc1cc(C2C(C(=O)c3cc4cccc(OC)c4o3)=C(O)C(=O)N2c2nnc(C)s2)cc(Br)c1O` (stereo not given)?
GIV-Gai inh: 27*; HCMV NEC inh: -74

Results for CCN1CCN(c2nc3ccccn3c(=O)c2/C=C2\SC(=S)N(CC)C2=O)CC1 ?
GIV-Gai inh: 289; HCMV NEC inh: -61

What do the screens show for `COCCCN1C(=O)/C(=C/c2c(N3CCN(CCO)CC3)nc3ccccn3c2=O)SC1=S`?
GIV-Gai inh: 23*

Results for O=C1/C(=C\c2c(N3CCN(CCO)CC3)nc3ccccn3c2=O)SC(=S)N1CC1CCCO1 (stereo not given) ?
GIV-Gai inh: 25*

How did CC1CCN(c2nc3ccccn3c(=O)c2/C=C2/SC(=S)N(CC3CCCO3)C2=O)CC1 (stereo not given) do in these assays?
GIV-Gai inh: 160

How did Cc1cccn2c(=O)c(/C=C3\SC(=S)N(Cc4ccccc4)C3=O)c(N3CCN(C)CC3)nc12 do in these assays?
GIV-Gai inh: 122; HCMV NEC inh: -13

How did COCCN1C(=O)/C(=C/c2c(N3CCN(CCO)CC3)nc3ccccn3c2=O)SC1=S do in these assays?
GIV-Gai inh: -29*; HCMV NEC inh: -97

Results for Cc1cccn2c(=O)c(/C=C3\SC(=S)N(CC4CCCO4)C3=O)c(N3CCN(C)CC3)nc12 (stereo not given) ?
GIV-Gai inh: -30*; HCMV NEC inh: -82

How did CC(c1ccccc1)N1C(=O)/C(=C\c2c(N3CCN(CCO)CC3)nc3ccccn3c2=O)SC1=S (stereo not given) do in these assays?
GIV-Gai inh: 170

How did CC(C)c1ccc2c(c1)C1(N=C(N)Nc3nc4ccccc4n31)C(=O)N2 (stereo not given) do in these assays?
HCMV NEC inh: -19

What do the screens show for `CCCN1Cc2cccc(C(=O)NC(C)c3ccc4c(c3)OCCO4)c2C1=O` (stereo not given)?
GIV-Gai inh: 100; HCMV NEC inh: -5

Three records picked at random from the list so far:
What do the screens show for `COC(=O)CN(C#N)c1nc(C)cc(C)n1`?
GIV-Gai inh: 98; HCMV NEC inh: 1

Results for O=C(O)c1cc(NC(=O)c2cccc(N3C(=O)c4cccc5c([N+](=O)[O-])ccc(c45)C3=O)c2)cc(C(=O)O)c1 ?
GIV-Gai inh: 85*; HCMV NEC inh: -20

What do the screens show for `COCCCN1C(=O)/C(=C/c2c(N3CCN(CCO)CC3)nc3ccccn3c2=O)SC1=S`?
GIV-Gai inh: 23*

The main list resumes, starting 2 compounds before the break.
How did CC(C)c1ccc2c(c1)C1(N=C(N)Nc3nc4ccccc4n31)C(=O)N2 (stereo not given) do in these assays?
HCMV NEC inh: -19

What do the screens show for `CCCN1Cc2cccc(C(=O)NC(C)c3ccc4c(c3)OCCO4)c2C1=O` (stereo not given)?
GIV-Gai inh: 100; HCMV NEC inh: -5

How did CCOC(=O)c1ccc(N2C(=O)c3[nH]nc(-c4ccc(OC)cc4)c3C2c2ccccc2F)cc1 (stereo not given) do in these assays?
GIV-Gai inh: 98; HCMV NEC inh: -26

Results for CCOc1cc(C(=O)NCc2ccc3c(c2)n(C)c(=O)n3C)cc(OCC)c1OCC ?
GIV-Gai inh: 101

Results for COc1ccccc1NC(=O)Nc1ccnn1C1CCCCC1 ?
HCMV NEC inh: -7

How did COc1ccccc1NC(=O)Nc1ccnn1Cc1ccccc1 do in these assays?
HCMV NEC inh: 85*

Results for CCSc1ncc2c(=O)n(CC(=O)Nc3cccc(Cl)c3C)cnc2n1 ?
GIV-Gai inh: 114; HCMV NEC inh: -2

How did COc1cccc(/C(O)=C/c2nc3ccc(C(=O)N4CCN(C5CCCCC5)CC4)cc3[nH]c2=O)c1 do in these assays?
GIV-Gai inh: 110; HCMV NEC inh: -74

How did COc1cccc(/C(O)=C/c2nc3ccc(C(=O)N4CCN(c5ccccn5)CC4)cc3[nH]c2=O)c1 do in these assays?
GIV-Gai inh: 55*; HCMV NEC inh: -44

What do the screens show for `O=c1[nH]c(SCc2cccc(Br)c2)nc2c1CN(Cc1ccccc1)CC2`?
GIV-Gai inh: 95

Results for COc1cccc2c1CC/C(=C\c1ccc(N(C)C)cc1)C2=O ?
GIV-Gai inh: -69*; HCMV NEC inh: -19

How did CN(C)c1ccc(/C=C2\CCC(=C3SCCCS3)C2=O)cc1 do in these assays?
HCMV NEC inh: -19

What do the screens show for `CC(C)C/C=C1\CC/C(=C\c2ccc(N(C)C)cc2)C1=O`?
GIV-Gai inh: -74*; HCMV NEC inh: -23

How did CCCN1C/C(=C\c2ccc(N(C)C)cc2)C(=O)/C(=C/c2ccc(N(C)C)cc2)C1 do in these assays?
GIV-Gai inh: 221; HCMV NEC inh: -29

Results for Cc1ccc(C)c(N2CCN(C(=O)C3CCCN(C(=O)c4cc(-c5cccnc5)n[nH]4)C3)CC2)c1 (stereo not given) ?
GIV-Gai inh: 99; HCMV NEC inh: -16

What do the screens show for `CCCCn1c(CCC(=O)O)ccc1-c1ccccc1`?
GIV-Gai inh: 107; HCMV NEC inh: -12

What do the screens show for `CCOC(=O)N1CCC(NC(=O)C2CCCN(c3ncnc4c3sc3cccc(F)c34)C2)CC1` (stereo not given)?
GIV-Gai inh: 103

What do the screens show for `CCOC(=O)N1CCC(NC(=O)C2CCN(c3ncnc4c3sc3cccc(F)c34)CC2)CC1`?
GIV-Gai inh: 101; HCMV NEC inh: 53*

Results for Nc1nc(F)cc(N2CCOCC2)n1 ?
GIV-Gai inh: 97; HCMV NEC inh: -3

What do the screens show for `Nc1ccc2c3c(cccc13)C(=O)C=C2`?
GIV-Gai inh: -30*; HCMV NEC inh: 57*

What do the screens show for `NS(=O)(=O)c1ccc2c3c(cccc13)C(=O)N2`?
HCMV NEC inh: -70

Results for CCn1c(=O)n(CC)c2cc(NC(=O)CN3C(=O)c4ccccc4S3(=O)=O)ccc21 ?
GIV-Gai inh: 100; HCMV NEC inh: 15

What do the screens show for `Cc1cc(C)n2nc(CC(=O)N3CCN(c4ccccc4)CC3)nc2n1`?
GIV-Gai inh: 108; HCMV NEC inh: 1

Results for CC(=O)c1ccc(N=Cc2c(C)[nH]n(-c3ccc(C)c(C)c3)c2=O)cc1 ?
GIV-Gai inh: 111

Results for Cc1ccc(-n2[nH]c(C)c(N=Nc3cccc(-c4cccc(C(=O)O)c4)c3O)c2=O)cc1C ?
HCMV NEC inh: 80*

Results for N=C1/C(=C\c2coc3ccccc3c2=O)C(=O)N=C2SC=NN12 ?
GIV-Gai inh: -55*

Results for CN1C(N)=NC(=O)/C1=C/c1coc2ccccc2c1=O ?
GIV-Gai inh: 97; HCMV NEC inh: -35

What do the screens show for `C=CCN1C(=O)CS/C1=N\S(=O)(=O)c1ccc(Cl)s1`?
HCMV NEC inh: -11

How did OC1(c2ccc(F)cc2)CN(c2ccc(Br)cc2)C2=[N+]1CCCS2 (stereo not given) do in these assays?
GIV-Gai inh: 95
